Usually Ki stands for the equilibrium dissociation constant of an inhibitor or competing ligand from its target. A lower Ki goes with a stronger hold on the target.

Protein sequences, listed by entry. Tags and fused reporters are not part of them.
UniProt P33533, whole entry: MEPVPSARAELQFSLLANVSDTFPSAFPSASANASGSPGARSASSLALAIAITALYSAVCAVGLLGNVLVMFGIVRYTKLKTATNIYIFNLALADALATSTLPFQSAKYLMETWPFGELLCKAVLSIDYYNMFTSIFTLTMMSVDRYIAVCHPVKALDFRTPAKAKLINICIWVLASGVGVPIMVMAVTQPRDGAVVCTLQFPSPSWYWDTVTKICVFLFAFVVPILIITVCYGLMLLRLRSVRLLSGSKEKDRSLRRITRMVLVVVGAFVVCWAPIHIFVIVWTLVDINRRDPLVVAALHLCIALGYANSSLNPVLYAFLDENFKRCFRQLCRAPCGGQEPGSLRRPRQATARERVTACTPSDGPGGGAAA

The values that follow come from ChEMBL document CHEMBL1124249 (J Med Chem, 1988).

The target in this experiment is Delta-type opioid receptor (Rattus norvegicus, UniProt P33533). The experiment in a line: Inhibition of [3H]DTLET binding torat brain membrane Opioid receptor delta 1.

Take `CSCC[C@H](NC(=O)[C@H](Cc1ccccc1)NC(=O)CNC(=O)CNC(=O)[C@@H](N)Cc1ccc(O)cc1)C(=O)O`: affinity was put at a Ki of 7.3 nM.
